For one molecule, EC50 results are on record in ChEMBL document CHEMBL1641456, “Design, synthesis, and pharmacological evaluation of azetedine and pyrrolidine derivatives as dual norepinephrine reuptake inhibitors and 5-HT(1A) partial agonists” (Bioorg Med Chem Lett, 2011).

Amino acid sequences for entries named in this document (tags omitted).
UniProt P08908, whole entry: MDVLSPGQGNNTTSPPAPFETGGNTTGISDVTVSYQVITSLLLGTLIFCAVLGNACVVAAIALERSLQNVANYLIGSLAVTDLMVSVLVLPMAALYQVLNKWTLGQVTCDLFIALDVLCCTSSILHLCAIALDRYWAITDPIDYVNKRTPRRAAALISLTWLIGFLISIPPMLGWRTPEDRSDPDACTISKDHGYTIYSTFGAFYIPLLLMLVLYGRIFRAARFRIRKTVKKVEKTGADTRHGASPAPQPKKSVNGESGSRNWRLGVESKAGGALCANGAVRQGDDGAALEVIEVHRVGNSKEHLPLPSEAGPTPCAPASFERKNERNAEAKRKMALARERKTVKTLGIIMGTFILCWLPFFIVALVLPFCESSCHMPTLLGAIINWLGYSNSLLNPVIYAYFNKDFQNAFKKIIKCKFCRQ

For the assay, the target named is 5-hydroxytryptamine receptor 1A (Homo sapiens, UniProt P08908). Description: Agonist activity at 5HT1A receptor by GTPgammaS binding assay. Format: functional. Background: GTPγS is a poorly hydrolysed GTP analogue; its binding reports G protein activation.

The structures appear in SMILES notation.

The term EC50 denotes the concentration at which the effect is half-maximal. Consider `Fc1cccc(Cl)c1Oc1cccc(F)c1O[C@@H]1CCNC1`, for which a half-maximal response (EC50) required 0.077 µM.
